Target: JNk3 NANOLUC fusion (Homo sapiens, UniProt P53779)
Format: binding
Conditions: cell-free; serially-diluted BIRB796, BIRB-TOM tracer at 2 uM

Protein sequences, listed by entry. Tags and fused reporters are not part of them. Lines headed by an entry give the natural chain unless they say otherwise; changes in a name come on top.
UniProt P53779: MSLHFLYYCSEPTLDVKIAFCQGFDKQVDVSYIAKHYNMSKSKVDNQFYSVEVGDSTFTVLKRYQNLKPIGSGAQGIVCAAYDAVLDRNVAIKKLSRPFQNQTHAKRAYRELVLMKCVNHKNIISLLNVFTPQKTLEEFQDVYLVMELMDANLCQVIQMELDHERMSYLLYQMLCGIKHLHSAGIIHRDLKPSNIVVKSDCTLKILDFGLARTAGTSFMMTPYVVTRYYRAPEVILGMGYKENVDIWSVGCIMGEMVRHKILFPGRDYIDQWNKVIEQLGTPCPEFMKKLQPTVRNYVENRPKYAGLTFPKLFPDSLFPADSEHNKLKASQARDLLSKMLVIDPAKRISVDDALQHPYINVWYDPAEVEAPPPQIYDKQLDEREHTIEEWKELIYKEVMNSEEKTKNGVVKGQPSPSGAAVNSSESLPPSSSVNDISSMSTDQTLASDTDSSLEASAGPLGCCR

Cc1ccc(-n2nc(C(C)(C)C)cc2NC(=O)Nc2ccc(OCCN3CCOCC3)c3ccccc23)cc1 [BIRB-796]
affinity (competitive displacement of BIRB-TOM tracer): lower affinity

From patent US11740249B2, “Recognition of cellular target binding by a bioactive agent using intracellular bioluminescence resonance energy transfer” (Promega Corporation, priority 2012, dated 2023)
